Screens as filed in PubChem.
Shown are actives, neighbours in structure and some others; about 2.1% of the full set was active somewhere.
PGC1a acetyl inh: lowers PGC1a acetylation signal in U2OS cells. AlphaScreen anti-acetyl-lysine; with virally co-expressed GCN5 acetyltransferase. inhibition, % at 15.6 µM. hit rate 0.17% among 350,000. AID 651687;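 active = every replicate shows inhibition of at least 40%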;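 also: 0% = neutral control wells and 100% = positive control wells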
TRPM1 prom inh: inhibitors of MITF-driven TRPM1 promoter in melanoma cells; inhibition, % at 12.5 µM; hit rate 0.83% among 330,000; SK-MEL-5 TRPM1 promoter luciferase, 24 h;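 active = mean inhibition across replicates of 60% or more, whatever share of single replicates reaches that level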
Wnt bcat act: Wnt/beta-catenin pathway activation. Wnt/beta-catenin reporter cell assay, activator, plate reader. activation, % at 9.35 µM. hit rate 1.2% among 300,000. AID 743398; in the data active = activation above about 30%, passing the limit was not always enough;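 also: 0% = neutral control wells and 100% = positive control wells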
UUG fidelity: modulators of start codon recognition fidelity in yeast; S. cerevisiae UUG-firefly luciferase reporter, luminescence/redox ratio; activity score, % at 18.7 µM; hit rate 0.13% among 350,000; AID 602363;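 active = replicate mean at a twofold rise or more, about +100% in these data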;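 note: firefly luciferase made from a UUG start codon reports start codon fidelity; reporter light over untreated wells divided by growth signal over untreated wells; some hits fall short of that in this replicate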
miR-122 sensor: inhibitors of miR-122 in Huh7 cells | activation (reporter increase), % at 12.5 µM | hit rate 0.3% among 340,000 | Huh7 miR-122 Renilla luciferase sensor, 48 h; neutral wells = 0, positive control = 100;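 active = mean replicate activation score at least 90 and every replicate individually at or above 90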;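 also: higher luciferase means less miR-122 activity so hits act as miR-122 inhibitors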
MITF TRPM1 HTS: activators of MITF-driven TRPM1 promoter activity in SK-MEL-5 cells; activation, % at 12.5 µM; SK-MEL-5 TRPM1-promoter luciferase, 24 h; % of positive control, neutral wells = 0; hit rate 0.75% among 300,000;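 active = mean activation of at least 80% with every replicate also reaching 80%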;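 also: 0% = neutral control wells and 100% = parthenolide positive control wells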
An asterisk follows results filed as active; [ ] = remark or other dose.

Results for O=C(Nc1ccc2c(c1)CCC2)c1ccc(F)c(S(=O)(=O)N2CCOCC2)c1 ?
TRPM1 prom inh: -11.6; Wnt bcat act: 83.0*; MITF TRPM1 HTS: 13.7

How did NS(=O)(=O)c1cc(C(=O)Nc2ccc3c(c2)CCC3)ccc1Cl do in these assays?
PGC1a acetyl inh: 8.6; TRPM1 prom inh: -103.1; Wnt bcat act: -2.6; UUG fidelity: -10.4; miR-122 sensor: 7.7; MITF TRPM1 HTS: 113.4*

What do the screens show for `Cc1ccc(S(=O)(=O)N[C@H]2CC[C@@H](CCNC(=O)C3CCC3)O[C@H]2CO)cc1`?
PGC1a acetyl inh: -0.3; UUG fidelity: -2.0

Results for O=C(Nc1ccc2oc(-c3ccncc3)nc2c1)c1cccs1 ?
TRPM1 prom inh: -35.2; UUG fidelity: -22.1; MITF TRPM1 HTS: 35.7

Results for CC(=O)Nc1ccc2nc3ccccc3nc2c1 ?
PGC1a acetyl inh: 2.2; TRPM1 prom inh: -40.4; Wnt bcat act: 46.7*; miR-122 sensor: -11.6

What do the screens show for `CCCC(=O)Nc1ccc2oc(-c3cccnc3)nc2c1`?
PGC1a acetyl inh: -1.1; TRPM1 prom inh: -45.4; Wnt bcat act: 36.5*; UUG fidelity: -0.4; miR-122 sensor: -8.2; MITF TRPM1 HTS: 51.2

What do the screens show for `CC(=O)Nc1ccc2oc(-c3ccccc3)nc2c1`?
TRPM1 prom inh: -76.1; Wnt bcat act: 63.9*; miR-122 sensor: -16.0; MITF TRPM1 HTS: 79.3

What do the screens show for `CC(=O)Nc1cccc(-c2nc3ccccc3o2)c1`?
TRPM1 prom inh: -15.3; Wnt bcat act: 3.9; UUG fidelity: -3.6

Results for O=C(Nc1ccc(-c2nc3cc(NC(=O)c4cccs4)ccc3o2)cc1)c1cccs1 ?
PGC1a acetyl inh: -5.2; TRPM1 prom inh: 73.4*; UUG fidelity: -4.9; miR-122 sensor: -0.1; MITF TRPM1 HTS: -75.0

How did CC(=O)N(C)C[C@@H]1Oc2ncc(C#CC3(O)CCCC3)cc2C(=O)N([C@@H](C)CO)C[C@H]1C do in these assays?
PGC1a acetyl inh: 10.0; UUG fidelity: 7.0; miR-122 sensor: 5.2[16.7 µM]

Results for COc1ccc(S(=O)(=O)N(C)C[C@H]2Oc3ccc(NC(=O)Cc4cn(C)c5ccccc45)cc3C(=O)N([C@H](C)CO)C[C@H]2C)cc1 ?
PGC1a acetyl inh: -7.8; UUG fidelity: -8.7; miR-122 sensor: 71.6[16.7 µM]

What do the screens show for `C/C=C/c1ccc([C@H]2[C@@H](CN(C)C(C)=O)N(C(=O)NCCC)[C@H]2CO)cc1`?
PGC1a acetyl inh: 6.6; UUG fidelity: 0.5; miR-122 sensor: 14.3[16.7 µM]

Results for Clc1ccc(/C=C/c2ncc3ccccn23)cc1 ?
PGC1a acetyl inh: -3.7; TRPM1 prom inh: -33.4; Wnt bcat act: 40.6*; MITF TRPM1 HTS: 33.6

Results for Fc1ccc(-c2ncc3ccccn23)cc1 ?
PGC1a acetyl inh: -7.7; TRPM1 prom inh: 0.4; Wnt bcat act: 11.1; MITF TRPM1 HTS: -8.9

What do the screens show for `C[C@@H]1CN([C@@H](C)CO)C(=O)c2cccc(NC(=O)C3CC3)c2O[C@@H]1CN(C)C(=O)Nc1ccccc1`?
UUG fidelity: -6.3; miR-122 sensor: -2.3[16.7 µM]

Random excerpt: 4 records from the list, in no set order.
What do the screens show for `Cc1ccc(S(=O)(=O)N[C@H]2CC[C@@H](CCNC(=O)C3CCC3)O[C@H]2CO)cc1`?
PGC1a acetyl inh: -0.3; UUG fidelity: -2.0

Results for O=C(Nc1ccc2c(c1)CCC2)c1ccc(F)c(S(=O)(=O)N2CCOCC2)c1 ?
TRPM1 prom inh: -11.6; Wnt bcat act: 83.0*; MITF TRPM1 HTS: 13.7

What do the screens show for `C[C@@H]1CN([C@@H](C)CO)C(=O)c2cccc(NC(=O)C3CC3)c2O[C@@H]1CN(C)C(=O)Nc1ccccc1`?
UUG fidelity: -6.3; miR-122 sensor: -2.3[16.7 µM]

Results for Fc1ccc(-c2ncc3ccccn23)cc1 ?
PGC1a acetyl inh: -7.7; TRPM1 prom inh: 0.4; Wnt bcat act: 11.1; MITF TRPM1 HTS: -8.9

Further entries:
Results for CC(C)NC(=O)Nc1ccc2c(c1)CC(=O)N([C@H](C)CO)C[C@@H](C)[C@H](CN(C)C(=O)Nc1cccc3ccccc13)O2 ?
PGC1a acetyl inh: 4.0; UUG fidelity: 11.1; miR-122 sensor: -6.1[16.7 µM]

What do the screens show for `O=C(C[C@H]1C[C@H]2c3cc(NC(=O)C4CCC4)ccc3O[C@H]2[C@@H](CO)O1)NCc1ccncc1`?
PGC1a acetyl inh: -7.3; UUG fidelity: -8.0; miR-122 sensor: -2.0[16.7 µM]

How did CC(O)C(NS(=O)(=O)c1ccc(Cl)cc1)C(=O)OCCOc1ccc(F)cc1 (stereo not given) do in these assays?
PGC1a acetyl inh: -1.9; Wnt bcat act: 45.4*; UUG fidelity: 2.2; miR-122 sensor: -1.4

Results for CC(O)C(NS(=O)(=O)c1ccc(Cl)cc1)C(=O)OCC(=O)Nc1cccnc1Cl (stereo not given) ?
PGC1a acetyl inh: -5.2; TRPM1 prom inh: -0.6; Wnt bcat act: -0.5; UUG fidelity: -9.4; miR-122 sensor: -8.3; MITF TRPM1 HTS: 1.2

What do the screens show for `COCC(=O)N1[C@H](CO)[C@H](c2ccccc2C2=CCCC2)[C@@H]1C#N`?
PGC1a acetyl inh: -0.8

How did COCC(=O)N1CC(=O)N2[C@H](CO)[C@@H](c3ccc(C#Cc4cccc(OC)c4)cc3)[C@@H]2C1 do in these assays?
PGC1a acetyl inh: 5.6

What do the screens show for `O=C(Nc1ccccc1)N1C[C@@H]2[C@H](c3ccccc31)[C@@H](CO)N2C(=O)c1ccncc1`?
PGC1a acetyl inh: 5.3; UUG fidelity: -13.2; miR-122 sensor: -16.7[16.7 µM]

Results for COc1ccc(S(=O)(=O)Nc2ccccc2C)cc1C(=O)N1CCOCC1 ?
PGC1a acetyl inh: 102.4*; TRPM1 prom inh: -0.3; Wnt bcat act: -9.3; miR-122 sensor: -4.1; MITF TRPM1 HTS: 1.9

What do the screens show for `Cc1ccccc1NS(=O)(=O)c1ccc(C)c(C(=O)N2CCOCC2)c1`?
PGC1a acetyl inh: -2.4; TRPM1 prom inh: 8.0; Wnt bcat act: -2.3; UUG fidelity: -15.1; MITF TRPM1 HTS: -8.5

How did Cc1ccc(-c2cc3c(nn2)-c2ccccc2C3=O)cc1 do in these assays?
PGC1a acetyl inh: -5.3; TRPM1 prom inh: 78.2*; Wnt bcat act: -12.7; UUG fidelity: -41.9; miR-122 sensor: 10.2; MITF TRPM1 HTS: -77.2

How did O=C1c2ccccc2-c2nnc(-c3ccc(F)cc3)cc21 do in these assays?
PGC1a acetyl inh: 8.4; TRPM1 prom inh: 6.3; Wnt bcat act: 3.7; miR-122 sensor: 6.1; MITF TRPM1 HTS: -3.5

How did NC(=O)c1cc([N+](=O)[O-])ccc1NCc1ccc(F)cc1 do in these assays?
Wnt bcat act: 5.2; UUG fidelity: -17.1

Results for NC(=O)c1cc([N+](=O)[O-])ccc1NCc1ccc(N)cc1 ?
TRPM1 prom inh: 78.9*; Wnt bcat act: -7.4; UUG fidelity: -19.0; miR-122 sensor: 0.0; MITF TRPM1 HTS: -75.7

Results for O=C1CN(C(=O)Cn2ncc(Cl)c(Cl)c2=O)c2ccccc2N1 ?
PGC1a acetyl inh: -74.0; TRPM1 prom inh: 92.8*; Wnt bcat act: -8.5; MITF TRPM1 HTS: -92.0

Results for O=C(Cn1ncc(Cl)c(Cl)c1=O)NC1CCCCC1 ?
TRPM1 prom inh: 95.9*; Wnt bcat act: -24.4; UUG fidelity: -14.0; MITF TRPM1 HTS: -96.0

How did O=C(Cn1ncc(Cl)c(Cl)c1=O)NCC1CCCCC1 do in these assays?
PGC1a acetyl inh: -151.0; TRPM1 prom inh: 91.9*; Wnt bcat act: -12.6; UUG fidelity: -30.9; miR-122 sensor: 3.3; MITF TRPM1 HTS: -91.8

What do the screens show for `O=C(Cn1ncc(Cl)c(Cl)c1=O)NC1CCS(=O)(=O)C1` (stereo not given)?
PGC1a acetyl inh: -7.8; TRPM1 prom inh: 18.7; Wnt bcat act: -23.2; MITF TRPM1 HTS: -18.7

Results for O=C(C[C@H]1C[C@@H]2c3cc(NC(=O)C4CCC4)ccc3O[C@@H]2[C@H](CO)O1)NCc1ccc(-c2ccccc2)cc1 ?
PGC1a acetyl inh: 7.9; UUG fidelity: -2.5; miR-122 sensor: -1.1[16.7 µM]
